From PubChem BioAssay (NCATS)
For some of these results: Most of the hits are listed elsewhere, so they are rarer here than in the full data. Records with an inconclusive call do not appear. Only a part is listed here, and it is no random draw. The source made the active and inactive calls. Unless noted, calls come from the whole dose curve; as a rule, active = well fitted curve in the direction sought with a large enough effect; inconclusive = small, poorly fitted or top-dose-only effect, or another doubt; inactive = no such curve, though single readings can be large; an effect the other way counts as inactive or inconclusive.

Protein sequences, listed by entry. Tags and fused reporters are not part of them. Lines headed by an entry give the natural chain unless they say otherwise; changes in a name come on top.
UniProt P27695, whole entry, looked up: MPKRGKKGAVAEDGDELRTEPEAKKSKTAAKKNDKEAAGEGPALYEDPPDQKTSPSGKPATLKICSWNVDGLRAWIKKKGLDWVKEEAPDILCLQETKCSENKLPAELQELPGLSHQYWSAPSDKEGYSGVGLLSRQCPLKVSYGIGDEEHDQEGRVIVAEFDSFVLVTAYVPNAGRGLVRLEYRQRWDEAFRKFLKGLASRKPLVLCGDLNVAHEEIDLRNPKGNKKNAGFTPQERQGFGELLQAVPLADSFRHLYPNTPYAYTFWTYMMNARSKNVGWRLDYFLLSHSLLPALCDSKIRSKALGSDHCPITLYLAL
UniProt Q99549: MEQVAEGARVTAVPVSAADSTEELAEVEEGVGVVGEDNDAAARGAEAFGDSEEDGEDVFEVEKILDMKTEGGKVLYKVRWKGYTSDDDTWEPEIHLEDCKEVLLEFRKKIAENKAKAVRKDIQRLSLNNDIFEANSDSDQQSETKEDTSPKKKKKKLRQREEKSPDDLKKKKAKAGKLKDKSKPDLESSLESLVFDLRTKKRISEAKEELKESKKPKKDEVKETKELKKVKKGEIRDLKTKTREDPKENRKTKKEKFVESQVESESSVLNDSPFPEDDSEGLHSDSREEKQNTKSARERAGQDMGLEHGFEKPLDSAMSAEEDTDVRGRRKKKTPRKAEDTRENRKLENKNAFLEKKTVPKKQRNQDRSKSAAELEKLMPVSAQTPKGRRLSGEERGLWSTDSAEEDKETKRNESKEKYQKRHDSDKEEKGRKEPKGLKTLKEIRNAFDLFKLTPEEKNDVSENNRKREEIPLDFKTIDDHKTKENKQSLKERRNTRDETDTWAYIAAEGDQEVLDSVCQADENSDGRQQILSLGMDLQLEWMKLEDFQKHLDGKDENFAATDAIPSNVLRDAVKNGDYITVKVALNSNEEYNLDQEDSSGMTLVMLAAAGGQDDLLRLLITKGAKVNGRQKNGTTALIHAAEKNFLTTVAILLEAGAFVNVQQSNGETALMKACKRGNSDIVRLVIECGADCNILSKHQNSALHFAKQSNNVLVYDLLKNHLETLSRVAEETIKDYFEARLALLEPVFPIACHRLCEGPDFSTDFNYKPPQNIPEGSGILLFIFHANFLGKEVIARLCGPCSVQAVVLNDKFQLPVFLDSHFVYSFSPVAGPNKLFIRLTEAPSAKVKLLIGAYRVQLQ
UniProt O94782: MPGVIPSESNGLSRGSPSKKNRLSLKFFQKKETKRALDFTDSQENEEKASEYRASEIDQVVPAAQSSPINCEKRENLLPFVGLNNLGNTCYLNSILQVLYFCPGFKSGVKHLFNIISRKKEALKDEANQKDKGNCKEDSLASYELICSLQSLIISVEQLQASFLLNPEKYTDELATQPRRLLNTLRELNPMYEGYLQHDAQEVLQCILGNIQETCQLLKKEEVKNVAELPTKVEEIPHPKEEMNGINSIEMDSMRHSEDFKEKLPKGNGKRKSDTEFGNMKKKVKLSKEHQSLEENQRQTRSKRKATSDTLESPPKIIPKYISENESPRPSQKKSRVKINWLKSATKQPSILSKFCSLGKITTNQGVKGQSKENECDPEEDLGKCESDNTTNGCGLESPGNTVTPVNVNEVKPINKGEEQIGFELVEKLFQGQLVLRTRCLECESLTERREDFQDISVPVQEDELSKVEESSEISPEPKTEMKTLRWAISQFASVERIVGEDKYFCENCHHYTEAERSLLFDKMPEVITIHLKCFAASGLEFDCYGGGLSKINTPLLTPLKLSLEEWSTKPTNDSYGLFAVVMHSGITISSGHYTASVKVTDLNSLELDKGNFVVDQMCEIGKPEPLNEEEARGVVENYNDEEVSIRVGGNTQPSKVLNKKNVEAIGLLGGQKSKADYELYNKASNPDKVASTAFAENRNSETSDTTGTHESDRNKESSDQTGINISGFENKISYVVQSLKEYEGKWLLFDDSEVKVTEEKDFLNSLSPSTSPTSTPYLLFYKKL
UniProt Q03431: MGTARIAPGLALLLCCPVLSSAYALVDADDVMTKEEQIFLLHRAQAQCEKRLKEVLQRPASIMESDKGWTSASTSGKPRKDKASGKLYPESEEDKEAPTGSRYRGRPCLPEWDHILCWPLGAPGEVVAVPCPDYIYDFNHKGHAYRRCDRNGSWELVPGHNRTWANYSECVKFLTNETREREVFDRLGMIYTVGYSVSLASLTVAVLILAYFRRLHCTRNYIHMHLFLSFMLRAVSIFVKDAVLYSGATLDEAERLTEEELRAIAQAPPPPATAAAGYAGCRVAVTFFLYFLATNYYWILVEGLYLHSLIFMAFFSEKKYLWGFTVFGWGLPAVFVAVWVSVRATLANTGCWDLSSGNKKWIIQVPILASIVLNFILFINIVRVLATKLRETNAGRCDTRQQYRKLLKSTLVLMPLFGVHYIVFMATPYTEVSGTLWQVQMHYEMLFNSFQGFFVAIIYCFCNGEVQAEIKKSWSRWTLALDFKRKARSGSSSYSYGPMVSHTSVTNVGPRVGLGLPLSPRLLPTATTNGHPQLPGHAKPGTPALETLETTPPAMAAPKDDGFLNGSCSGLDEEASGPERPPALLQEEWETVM
UniProt P10635, whole entry, looked up: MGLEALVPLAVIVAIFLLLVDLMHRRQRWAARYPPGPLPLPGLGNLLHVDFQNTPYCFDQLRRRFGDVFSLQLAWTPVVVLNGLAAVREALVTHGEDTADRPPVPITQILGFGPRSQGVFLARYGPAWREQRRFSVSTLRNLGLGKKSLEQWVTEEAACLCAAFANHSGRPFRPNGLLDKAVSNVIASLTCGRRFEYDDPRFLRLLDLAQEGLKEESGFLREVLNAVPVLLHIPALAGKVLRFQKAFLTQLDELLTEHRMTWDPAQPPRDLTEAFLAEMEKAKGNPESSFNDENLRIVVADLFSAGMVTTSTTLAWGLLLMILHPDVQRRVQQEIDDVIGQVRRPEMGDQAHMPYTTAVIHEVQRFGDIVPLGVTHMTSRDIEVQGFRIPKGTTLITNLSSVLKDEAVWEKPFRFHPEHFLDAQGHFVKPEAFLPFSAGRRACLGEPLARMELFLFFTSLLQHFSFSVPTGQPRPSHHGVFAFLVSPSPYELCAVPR

Experiments:
MCC-13 = test: qHTS assay to identify novel small-molecules to repurpose for Merkel cell carcinoma treatment (AID 1296009); details: MCC and control cell lines, CellTiter-Glo viability, 72 h; at 46 µM (top of the series); note: nearly all actives have a fitted effect of over 60% in size; for activity change, negative = cytotoxicity: % is set by controls: 0 for no effect and ±100 for the full control effect
Outline: (§1)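 Luminescence from CellTiter-Glo, read 10 min after addition at room temperature, reported viability following a 72 hr, 37 degree celsius treatment with NPC or MIPE compounds in titration; values normalized to plate controls.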

MCC-26 = test: as above; details: MCC and control cell lines, CellTiter-Glo viability, 72 h; at 46 µM (top of the series)
Outline: as §1

MKL-1 = test: as above; details: MCC and control cell lines, CellTiter-Glo viability, 72 h; at 46 µM (top of the series)
Outline: as §1

MKL-2 = test: as above; details: MCC and control cell lines, CellTiter-Glo viability, 72 h; at 46 µM (top of the series)
Outline: as §1

NIH3T3 = test: as above; details: MCC and control cell lines, CellTiter-Glo viability, 72 h; at 44.8 µM (top of the series)
Outline: as §1

UISO = test: as above; details: MCC and control cell lines, CellTiter-Glo viability, 72 h; at 46 µM (top of the series)
Outline: as §1

WaGa = test: as above; details: MCC and control cell lines, CellTiter-Glo viability, 72 h; at 46 µM (top of the series)
Outline: as §1

KB-3-1 = test: Cytotoxic Profiling of Annotated Libraries Using Quantitative High-Throughput Screening (AID 1296008); details: Five cell lines viability, CellTiter-Glo ATP luminescence, 48-72 h, hits give low values; note: % is set by controls: 0 for no effect and ±100 for the full control effect; nearly all actives have a fitted effect of over 60% in size
Outline: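 Compounds were pin-transferred onto cells and incubated 48 or 72 hr at 37 degree Celsius, 95% humidity. CellTiter-Glo was added, plates sat 10 min at room temperature, then ATP-coupled luminescence was imaged as the viability read-out.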

[1] = target: DNA repair nuclease/redox regulator APEX1 (Homo sapiens) (UniProt P27695); test: Confirmation qHTS Assay for Inhibitors of the Human Apurinic/apyrimidinic Endonuclease 1 (APE1) (AID 2572); details: purified APE1, fluorogenic abasic-site DNA cleavage; at 57.1 µM (top of the series);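 note: fluorescence gain from purified APE1 cutting a TAMRA/BHQ-2 THF abasic duplex; % is set by controls: 0 for no effect and ±100 for the full control effect; nearly all actives have a fitted effect of over 30% in size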
Outline: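 APE1 endonuclease activity was assessed as fluorescence released when the enzyme nicked a quenched abasic-site duplex (50 nM final). Compounds were preincubated with enzyme 15 min at room temperature before substrate addition.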

[2] = High Content Imaging Cell-Based qHTS for Inhibitors of the mTORC1 Signaling Pathway in MEF (Tsc2-/-, p53-/-) Cells (AID 2666); details: at 38.3 µM (top of the series);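 note: percent of cells scored positive for phospho-rpS6 Ser235/236 immunostaining by imaging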
Outline: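 Inhibition of rpS6 phosphorylation is measured by immunofluorescence imaging in empty-vector Tsc2-/-, p53-/- mouse embryonic fibroblasts after 24 hrs compound exposure at 37 degree Celsius. Results are reported as % positive cells per well.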

[3] = target: M-phase phosphoprotein 8 (Homo sapiens) (UniProt Q99549); test: qHTS Validation Assay for Inhibitors for MPP8 Chromodomain Interactions with Methylated Histone Tails (AID 488949); details: AlphaScreen MPP8 binding to H3K9me3 peptide;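 note: AlphaScreen signal from MPP8 chromodomain bound to biotinylated H3K9me3 peptide; top concentration of the series differs between compounds; % is set by controls: 0 for no effect and ±100 for the full control effect; nearly all actives have a fitted effect of over 55% in size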
Outline: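 AlphaScreen read-out: streptavidin donor and nickel chelate acceptor beads (final 10 ug/mL), 30 min in the dark at RT. Complex of 50 nM MPP8 and 50 nM b-H3(1-18)K9me3 peptide had been exposed to compounds for 30 min beforehand.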

[4] = target: Ubiquitin carboxyl-terminal hydrolase 1 (Homo sapiens) (UniProt O94782); test: Inhibitors of USP1/UAF1: Pilot qHTS (AID 504865); details: purified USP1/UAF1, Ub-rhodamine cleavage fluorescence;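 note: rhodamine fluorescence freed from ubiquitin-rhodamine substrate followed over time; top concentration of the series differs between compounds; % is set by controls: 0 for no effect and ±100 for the full control effect; nearly all actives have a fitted effect of over 35% in size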
Outline: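 1nM USP1/UAF1 + cpd, 15 min RT; start w/ Ub-Rho 150nM final; kinetic FL 480/540 nm, 6 reads q60 s. Buffer 50mM HEPES pH 7.8, 0.5mM EDTA, 1mM TCEP, 0.01% Tween-20, 0.1 mg/ml BSA.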

[5] = S16 Schwann cell PMP22 intronic element beta-lactamase assay (AID 624044; calls by dose curve;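 note: 0% = DMSO and -100% = potassium clavulanate positive control; nearly all actives have a fitted effect of over 15% in size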); details: S16 rat Schwann cells, PMP22 element beta-lactamase FRET, 24 h; at 17.1 µM (top of the series)
Outline: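 Beta-lactamase reporter under a PMP22 intronic regulatory element in stable S16 rat Schwann cells; 24 h compound exposure. 460 nm blue signal normalized between DMSO (0%) and potassium clavulanate, with 535 nm FRET tracking viability; curves classed by r2 and response.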

[6] = target: Parathyroid hormone/parathyroid hormone-related peptide receptor (Homo sapiens) (UniProt Q03431); test: qHTS for PTHR1 Agonists: Optimization Screen against the NCGC LOPAC library (AID 1347079); details: HEK293 GP2 PTHR1 GloSensor cAMP luminescence, 1 h; at 57.1 µM (top of the series);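 note: GloSensor cAMP luminescence in HEK-293 GP2 cells expressing human PTHR1 with IBMX; 0% is about no effect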
Outline: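 Signal increase flags agonism. GP2 cells, derived from HEK-293, express human PTHR1 and a GloSensor cAMP construct.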

CRL-7250 = normal cell line; test: qHTS assay to identify novel small-molecules to repurpose for Merkel cell carcinoma treatment (AID 1296009); details: MCC and control cell lines, CellTiter-Glo viability, 72 h; at 44.8 µM (top of the series); note: nearly all actives have a fitted effect of over 60% in size; for activity change, negative = cytotoxicity: % is set by controls: 0 for no effect and ±100 for the full control effect
Outline: as §1

[7] = target: Cytochrome P450 2D6 (Homo sapiens) (UniProt P10635); test: Cytochrome P450 family 2 subfamily D member 6 (CYP2D6) small molecule antagonists: luciferase biochemical (cell-free) qHTS assay (AID 1645840; active = well fitted curve in the direction sought with a large enough effect in the repeat runs; an effect the other way counts as inactive or inconclusive; note: potency is the fitted concentration of half-maximal effect; nearly all actives have a fitted effect of over 55% in size); details: P450-Glo CYP2D6 enzyme, luciferin luminescence, 1 h
Outline: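 P450-Glo CYP2D6 system: proluciferin substrate converted by enzyme to luciferin, read by luminescence proportional to activity. Enzyme-substrate mix with compound 10 min at room temperature, then NADPH regeneration 1 h before detection reagent.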

COc1cccc(OC)c1C(=O)N[C@@H]1C(=O)N2[C@@H]1SC(C)(C)[C@@H]2C(=O)O
inactive: activity change, negative = cytotoxicity (MCC-13) -14% | activity change, negative = cytotoxicity (MCC-26) 11.2% | activity change, negative = cytotoxicity (MKL-1) 0.615% | activity change, negative = cytotoxicity (MKL-2) 4.1% | outcome (NIH3T3) | activity change, negative = cytotoxicity (UISO) 23.1% | activity change, negative = cytotoxicity (WaGa) 4.66%

CN=C(NC#N)NCCSCc1csc(N=C(N)N)n1
inactive: max response (KB-3-1) 19.3%

C[C@]12C[C@H](O)[C@H]3[C@@H](CCC4=CC(=O)CC[C@@]43C)[C@@H]1CC[C@@H]2C(=O)CO
inactive: max response (KB-3-1) -1.46%

CC(C)(C)C1(O)CCN2CC3c4ccccc4CCc4cccc(c43)C2C1 (configuration not stated)
inactive: max response (KB-3-1) 23.3%

COc1c(N2CCNC(C)C2)c(F)cc2c(=O)c(C(=O)O)cn(C3CC3)c12 (configuration not stated)
inactive: activity change, negative = inhibition [1] -6.46%

COc1ccc2cc([C@H](C)C(=O)O)ccc2c1
inactive: outcome [2] | activity change, negative = inhibition ([3]; at 57.1 µM (top of the series)) -4.63% | activity change, negative = inhibition ([3]; at 114 µM (top of the series)) -4.51% | activity change, negative = inhibition ([4]; at 54.9 µM (top of the series)) -9.65% | activity change, negative = inhibition ([4]; at 114 µM (top of the series)) -11.6% | ratio activity, negative = inhibition [5] -0.649% | activation [6] 20.3%

Oc1ccc(C2CNCCc3c2cc(O)c(O)c3Cl)cc1 (configuration not stated)
inactive: outcome (CRL-7250) | activity change, negative = cytotoxicity (MCC-13) -1.16% | activity change, negative = cytotoxicity (MCC-26) -12.1% | activity change, negative = cytotoxicity (MKL-1) -16.6% | activity change, negative = cytotoxicity (MKL-2) -26.9% | activity change, negative = cytotoxicity (UISO) -23.3%

N[C@@H]1CONC1=O
inactive: activity change, negative = cytotoxicity (MCC-13) 2.73% | activity change, negative = cytotoxicity (MCC-26) 0.978% | activity change, negative = cytotoxicity (MKL-1) -7.66% | activity change, negative = cytotoxicity (MKL-2) -7.71% | activity change, negative = cytotoxicity (UISO) 26.1% | activity change, negative = cytotoxicity (WaGa) -8.99%

C#C[C@]1(O)CC[C@H]2[C@@H]3CCC4=Cc5oncc5C[C@]4(C)[C@H]3CC[C@@]21C
active: Potency [7] 13.8 µM

CC(C)Oc1ccc2c(=O)c(-c3ccccc3)coc2c1
inactive: activity change, negative = cytotoxicity (MCC-13) 4.42% | activity change, negative = cytotoxicity (MCC-26) 7.13% | activity change, negative = cytotoxicity (MKL-1) 2.33% | activity change, negative = cytotoxicity (MKL-2) -16.8% | activity change, negative = cytotoxicity (UISO) -3.49% | activity change, negative = cytotoxicity (WaGa) -7.88%
